Ab-14 heavy chain CDR variants: yeast mating affinities

Data: MIT Lincoln Laboratory AlphaSeq set, Li et al. 2023, doi:10.1038/s41467-023-39022-2, as distributed in FLAb.

Target: peptide PDVDLGDISGINAS, taken from heptad repeat 2 (HR2) of SARS-CoV-2 spike.

The variants keep the light chain, the linker and the frameworks of Ab-14 (scFv order VH, the linker GGGGSGGGGSGGGGS, VL).
VH: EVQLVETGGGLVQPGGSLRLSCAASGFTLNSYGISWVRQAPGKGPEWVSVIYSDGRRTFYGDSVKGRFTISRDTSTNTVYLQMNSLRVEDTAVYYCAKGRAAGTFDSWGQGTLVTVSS
VL: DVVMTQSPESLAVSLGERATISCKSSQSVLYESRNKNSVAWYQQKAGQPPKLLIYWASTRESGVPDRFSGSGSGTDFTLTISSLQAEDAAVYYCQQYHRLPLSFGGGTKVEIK

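Phage display of a naive human antibody library on the peptide gave the parent. Designed CDR sequences, proposed from the first random library and measured here. Group labels follow the data file (Ctrl: baseline library sampled from a position-specific scoring matrix, with some repeated check sequences; Rand: our label for a block that the file lists under HC and that is probably the random mutants of the ten best first-round binders; En: ensemble of fine-tuned language models; GP: Gaussian process model; HC: hill climbing; Gen: genetic algorithm; Gibbs: Gibbs sampling; a sequence that several methods proposed may carry one label only). AlphaSeq pools MATa yeast showing the antibodies with MATalpha yeast showing the peptide. After mating in shaken culture at 30 °C for 16 h, diploids were selected and their barcode pairs sequenced. A regression on co-assayed BCL2-family reference pairs converts the normalised counts of each replicate to an apparent Kd. Each pool was mated in six replicate cultures.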

The whole VH of each variant is written out. The Kd shown is the geometric mean over detected replicates; a lower Kd is a better binder. "nd" marks a missing value. The strain was present, yet no cells mated with the target were sequenced in any replicate, which points to weak or no binding. The list is sorted by this average, lowest first, undetected variants last. The parent sequence was in this pool as ten entries: three were never detected, three once, and four in most replicates, with averages from 2.2 nM to 240 nM. The range of this assay differs from that of the first round, and the authors advise against merging the two. The authors' rule: three or more of the six replicates give a measured affinity, fewer mean a poor binder. Background: pairings of all heavy chain designs with three empty control strains gave a value in 1% of cases (median 120 nM, 5th percentile 7.0 nM). Values in that range, when seen in few replicates, are hard to tell from nonspecific mating. Also given: how often the same scFv was detected with the empty control strains.

Kd (apparent) | detected | empty controls | VH | group
190 pM | 6 of 6 | 0 of 18 | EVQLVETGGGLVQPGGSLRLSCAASGFDLNEYGISWVRQAPGKGPEWVSVIYADGVRTAYADSVKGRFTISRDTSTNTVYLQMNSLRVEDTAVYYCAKGNVAGTFDKWGQGTLVTVSS | En_Gen
600 pM | 6 of 6 | 0 of 18 | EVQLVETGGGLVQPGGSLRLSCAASGFDLNEYGISWVRQAPGKGPEWVSVIYADGMRTAYADSVKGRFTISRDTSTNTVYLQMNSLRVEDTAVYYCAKGNNAGTFDLWGQGTLVTVSS | En_Gen
1.8 nM | 6 of 6 | 0 of 18 | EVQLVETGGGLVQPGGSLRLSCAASGFNLNSYGISWVRQAPGKGPEWVSVIYSDGRRTFYGDSVKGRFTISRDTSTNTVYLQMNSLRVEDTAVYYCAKGSEAGTFDSWGQGTLVTVSS | GP_Gen
2.2 nM | 6 of 6 | 1 of 18 | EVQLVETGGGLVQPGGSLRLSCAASGFTLNSYGISWVRQAPGKGPEWVSVIYSDGMRTFYTDDVKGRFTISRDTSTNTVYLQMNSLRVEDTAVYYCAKGRTAGTFDSWGQGTLVTVSS | GP_Gibbs
7.4 nM | 4 of 6 | 0 of 18 | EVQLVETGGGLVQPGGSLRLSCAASYFTLNEYGISWVRQAPGKGPEWVSVIYSDGRRTFYGDSVKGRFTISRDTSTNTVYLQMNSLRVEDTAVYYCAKGQAAGTFDKWGQGTLVTVSS | GP_Gibbs
26 nM | 6 of 6 | 0 of 18 | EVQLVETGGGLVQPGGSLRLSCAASGFTLNEYGISWVRQAPGKGPEWVSVIYSDGRRTFYSDSVKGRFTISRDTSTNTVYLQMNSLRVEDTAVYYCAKGRFAGTFDIWGQGTLVTVSS | GP_HC
43 nM | 4 of 6 | 0 of 18 | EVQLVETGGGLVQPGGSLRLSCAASGFTLNSYGISWVRQAPGKGPEWVSVIYSDGRRTFYKNSVKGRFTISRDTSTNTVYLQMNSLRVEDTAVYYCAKGDAAGTFDSWGQGTLVTVSS | Ctrl
71 nM | 5 of 6 | 1 of 18 | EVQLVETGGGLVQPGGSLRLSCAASGFTLNEYGISWVRQAPGKGPEWVSVIYSDGRRTFYTDRVKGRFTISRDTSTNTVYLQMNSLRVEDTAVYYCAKGKFAGTFDSWGQGTLVTVSS | GP_HC
98 nM | 5 of 6 | 0 of 18 | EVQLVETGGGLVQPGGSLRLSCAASGFSLNEYGISWVRQAPGKGPEWVSVIYSDGRRTMYTDSVKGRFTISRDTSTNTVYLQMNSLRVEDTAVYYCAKGRCAGTFDSWGQGTLVTVSS | GP_HC
100 nM | 1 of 6 | 0 of 18 | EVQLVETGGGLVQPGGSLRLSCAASGFNLNMYGISWVRQAPGKGPEWVSVIYSDGQRTFYGDSVKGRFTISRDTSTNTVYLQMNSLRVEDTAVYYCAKGRAAGTFEVWGQGTLVTVSS | Ctrl
nd | 0 of 6 | 0 of 18 | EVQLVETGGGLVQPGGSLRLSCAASGFTLNSYGISWVRQAPGKGPEWVSVIYSDGRRTFYGDSVKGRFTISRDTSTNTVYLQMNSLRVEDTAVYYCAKGRAIGTFDSWGQGTLVTVSS | Ctrl
nd | 0 of 6 | 0 of 18 | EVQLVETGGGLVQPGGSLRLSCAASGFEINMYGGSWVRQAPGKGPEWVSVIYSDGIRTFYGDNVKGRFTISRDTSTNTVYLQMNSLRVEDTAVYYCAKGRGAGTFDSWGQGTLVTVSS | Ctrl
nd | 0 of 6 | 0 of 18 | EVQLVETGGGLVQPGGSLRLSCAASGDGLQEYGISWVRQAPGKGPEWVSVIYADGFRTSYANDVKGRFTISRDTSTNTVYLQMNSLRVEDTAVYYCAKGTAAGIFMVWGQGTLVTVSS | En_Gibbs
nd | 0 of 6 | 0 of 18 | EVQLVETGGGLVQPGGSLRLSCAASGFTLNSYGISWVRQAPGKGPEWVSVIYADGRRTFYWDSVKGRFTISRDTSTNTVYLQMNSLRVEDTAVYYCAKGRAAGTNKSWGQGTLVTVSS | Rand

Picked from the list: the 2 lowest averages where every replicate gave a value.

{"VH": "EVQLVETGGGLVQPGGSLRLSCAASGFDLNEYGISWVRQAPGKGPEWVSVIYADGVRTAYADSVKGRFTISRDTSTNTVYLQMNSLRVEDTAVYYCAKGNVAGTFDKWGQGTLVTVSS", "group": "En_Gen", "Kd (apparent)": "190 pM", "detected": "6 of 6", "empty controls": "0 of 18"}
{"VH": "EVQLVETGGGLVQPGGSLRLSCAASGFDLNEYGISWVRQAPGKGPEWVSVIYADGMRTAYADSVKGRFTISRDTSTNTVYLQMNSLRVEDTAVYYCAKGNNAGTFDLWGQGTLVTVSS", "group": "En_Gen", "Kd (apparent)": "600 pM", "detected": "6 of 6", "empty controls": "0 of 18"}